# In patent US20250195484A1, “CEREBLON LIGANDS AND USES THEREOF” (priority 2022, published 2025):
# Sequences of proteins named here, by UniProt entry; tags and fusion partners are left off. A change or cut given only in a name is not applied to a line headed by its entry.
# UniProt Q96SW2: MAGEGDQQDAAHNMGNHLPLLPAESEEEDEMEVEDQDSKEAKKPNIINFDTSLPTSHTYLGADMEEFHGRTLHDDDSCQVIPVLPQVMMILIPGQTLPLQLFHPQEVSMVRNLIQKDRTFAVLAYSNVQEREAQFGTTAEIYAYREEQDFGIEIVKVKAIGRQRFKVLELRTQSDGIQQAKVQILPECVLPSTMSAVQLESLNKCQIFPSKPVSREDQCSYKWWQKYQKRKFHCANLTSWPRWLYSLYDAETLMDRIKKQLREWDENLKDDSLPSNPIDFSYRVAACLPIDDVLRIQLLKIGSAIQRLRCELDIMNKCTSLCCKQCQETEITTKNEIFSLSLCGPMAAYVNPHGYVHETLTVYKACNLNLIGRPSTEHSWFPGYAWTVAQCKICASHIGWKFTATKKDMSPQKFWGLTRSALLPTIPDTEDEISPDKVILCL
# pIC50: −log10 of the molar value.
# Target: GST-tagged wild-type human CRBN protein (Homo sapiens, UniProt Q96SW2)
# Test: biochemical
row,SMILES,pIC50
1,"O=C1CCC(N2Cc3c(ccc4c3OCCC43CCNCC3)C2=O)C(=O)N1 (stereo not shown) [Compound A16, 3-(7′-oxo-2′,3′,7′,9′-tetrahydro-8′H-spiro[piperidine-4,4′-pyrano[2,3-e]isoindol]-8′-yl)piperidine-2,6-dione]",6.38
2,"O=C1CCC(N2Cc3c(ccc4c3COC43CCNCC3)C2=O)C(=O)N1 (stereo not shown) [Compound B0, 3-(6-oxo-6,8-dihydrospiro[furo[3,4-e]isoindole-3,4′-piperidin]-7(1H)-yl)piperidine-2,6-dion]",4.85
3,"O=C1CC[C@H](N2Cc3c(ccc4c3NCC43CCNCC3)C2=O)C(=O)N1 [Compound B2, (S)-3-(6′-oxo-1′,2′,6′,8′-tetrahydro-7′H-spiro[piperidine-4,3′-pyrrolo[3,4-g]indol]-7′-yl)piperidine-2,6-dione]",5.55
4,"CN1CC2(CCNCC2)c2ccc3c(c21)CN([C@H]1CCC(=O)NC1=O)C3=O [Compound B3, (S)-3-(1′-methyl-6′-oxo-1′,2′,6′,8′-tetrahydro-7′H-spiro[piperidine-4,3′-pyrrolo[3,4-g]indol]-7′-yl)piperidine-2,6-dione]",5.51
